From US9255118B2, “Light induced drug release” (UNIVERSITEIT LEIDEN, priority 2010, dated 2016)
Entries after “also recorded” stand apart in the source; their conditions may differ.

What was measured:
[1] = Complex stability at human body temperature in the dark (1H NMR in D2O, 37° C.); assay type: physicochemical
Protocol: [Ru(terpy)(bpy)(Cl)](Cl) (2.23 mg, 3.97 μmol), compound [6](Cl)2 (2.14 mg, 2.84 μmol) and compound [7](Cl)2 (2.18 mg, 2.71 μmol) were weighed separately into three different NMR tubes. D2O (0.80 mL) was added to each of the NMR tubes and ^1H NMR spectra were taken. The NMR tubes were put into closed pressure tubes and kept in the dark at 37° C. to check the stability of the Ru—Cl and Ru—S bond. ^1H NMR spectra of each of the tubes were taken after 4 hours, 1 day, 3 days and 3 weeks. The NMR tubes were kept in an ice bath during transport in order to temporarily freeze the reaction. In the case of [Ru(terpy)(bpy)(Cl)](Cl), an equilibrium had been reached after four hours, characterized by 10% of [Ru(terpy)(bpy)(Cl)](Cl) and 90% of [Ru(terpy)(bpy)(H2O)](Cl)2. […] After three days, however, there was a few percent of [Ru(terpy)(bpy)(H2O)](Cl)2. After three weeks at 37° C., the ratio between compound [7](Cl)2 and [Ru(terpy)(bpY)(H2O)](Cl)2 was 7:3.
The stability of the Ru—S bond was measured at human body temperature and in the dark. To do so, compound [Ru(tpy)(apy)Cl]Cl, and [Ru(tpy)(apy)(AMet)]Cl2, (compound [13](Cl)2) were dissolved in D2O and kept in the dark at 37° C. The release of the aqua species was measured by ^1H NMR after 4 hours, 1 days, and 3 weeks. […] The stability of the Ru—S bond depends on the nature of the polypyridyl ligands (see Example 2), but in general it is much higher than that of the Ru—Cl bond.

[2] = Light-induced cleavage of the Ru-S bond in aqueous solution; assay type: physicochemical; conditions: white light
[3] = deionized water, monochromatic blue light, 452 nm

Row | thermal conversion to aqua complex ([1]; after three days) | photosubstitution of the monodentate sulfur ligand [2] | photosubstitution quantum yield [3] | Substance | thermal conversion to aqua complex ([1]; after three weeks) | thermal conversion to aqua complex ([1]; within one day)
1 | a few percent | photosubstituted by an aqua ligand | 0.011(3) | [Ru(terpy)(bpy)(D-biotin)](Cl)2 [Compound [7](Cl)2] | a few percents | no changes were observed; also recorded: does not take place thermally
2 | – | photosubstituted by an aqua ligand | – | [Ru(terpy)(bpy)(L-methionine)](BF4)2 [Compound [8](BF4)2] | – | –
3 | – | photosubstituted by an aqua ligand | 0.018(4) | [Ru(terpy)(bpy)(N-acetyl-L-methionine)](Cl)2 [Compound [6](Cl)2] | had not been converted; also recorded: no trace | does not take place thermally
